# Curated experimental data: water solubility values

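These are experimental values that the OPERA curators gathered from public databases to train and test their QSAR models. One number stands for a compound and property, with no spread given. Conditions of the individual experiments are not part of the data. Where a salt, mixture or single isomer is drawn, the source does not say that exactly this form was tested. Some upstream entries may be estimates or bounds without being marked so.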

Solubility in water is on a log10 molar scale (set defined at 25 °C).

{"smiles": "CC(=O)O[C@@H]1C[C@@H]2CC[C@@]1(C)C2(C)C", "log S (log10 mol/L)": "-3.496"}
{"smiles": "CCC(SSC(CC)C(=O)O)C(=O)O", "stereo": "configuration not stated", "log S (log10 mol/L)": "-0.962"}
{"smiles": "CC(C)(CO)COC(=O)C(C)(C)CO", "log S (log10 mol/L)": "0.121"}
{"smiles": "CC(=O)c1ccc2c(c1)CCCC2", "log S (log10 mol/L)": "-3.233"}
{"smiles": "CCC(C(=O)O)c1ccccc1", "stereo": "configuration not stated", "log S (log10 mol/L)": "0.405"}
{"smiles": "CCOC1=CC(=CNNC(N)=O)C=CC1=O", "log S (log10 mol/L)": "-2.805"}
{"smiles": "CCCCCC1CCC(c2ccc(OCC)c(F)c2F)CC1", "stereo": "configuration not stated", "log S (log10 mol/L)": "-7.015"}
{"smiles": "C[C@H](N[C@@H]1CCc2[nH]c3ccccc3c2C1)c1ccccc1.Cl", "log S (log10 mol/L)": "-2.213"}
{"smiles": "C=CCCCCCCCCCCCC", "log S (log10 mol/L)": "-7.162"}
{"smiles": "CC/C=C/CCCCCCCCCCOC(C)=O", "log S (log10 mol/L)": "-4.67"}
{"smiles": "Nc1ccc([N+](=O)[O-])cc1S(=O)(=O)[O-].[Na+]", "log S (log10 mol/L)": "-1.768"}
{"smiles": "C=CCCC(=O)C1=CCCC(C)(C)C1", "log S (log10 mol/L)": "-3.534"}
{"smiles": "Nc1cccc2c(S(=O)(=O)O)cccc12", "log S (log10 mol/L)": "-2.349"}
{"smiles": "CCC1(O)CCCC1CCC(C)C", "stereo": "configuration not stated", "log S (log10 mol/L)": "-2.856"}
{"smiles": "O=C(OCCCc1ccccc1)c1ccccc1", "log S (log10 mol/L)": "-4.801"}
{"smiles": "NS(=O)(=O)c1cc2c(s1)S(=O)(=O)CCC2O", "stereo": "configuration not stated", "log S (log10 mol/L)": "-1.355"}
{"smiles": "CC(=O)OCCCS(=O)(=O)c1ccc(S(N)(=O)=O)s1", "log S (log10 mol/L)": "-2.551"}
{"smiles": "Clc1ccc(C(Cn2ccnc2)OCc2csc3c(Cl)cccc23)c(Cl)c1", "stereo": "configuration not stated", "log S (log10 mol/L)": "-4.837"}
{"smiles": "C[C@H](CCC(=O)O)[C@H]1CC[C@H]2[C@@H]3C(=O)C[C@@H]4CC(=O)CC[C@]4(C)[C@H]3CC(=O)[C@]12C", "log S (log10 mol/L)": "-3.555"}
{"smiles": "FC(F)(F)COc1cccnc1Cl", "log S (log10 mol/L)": "-2.149"}
{"smiles": "NCCC(=O)N[C@@H](Cc1cnc[nH]1)C(=O)O", "log S (log10 mol/L)": "0.23"}
{"smiles": "CCCCCC(CO)CCC", "stereo": "configuration not stated", "log S (log10 mol/L)": "-3.361"}
{"smiles": "O=C(O)C[C@H](NC(=O)CP(=O)(O)O)C(=O)O", "log S (log10 mol/L)": "0.571"}
{"smiles": "CCCCC(CC)C(=O)OCCOCCOCCOC(=O)C(CC)CCCC", "stereo": "configuration not stated", "log S (log10 mol/L)": "-5.366"}
{"smiles": "CCCCCCCCCc1cc(C)cc(Cc2cc(C)cc(CCCCCCCCC)c2O)c1O", "log S (log10 mol/L)": "-6.478"}
{"smiles": "C=C1C(O)CC2CC1C2(C)C", "stereo": "configuration not stated", "log S (log10 mol/L)": "-2.096"}
{"smiles": "C=C(C)C(=O)Oc1ccccc1", "log S (log10 mol/L)": "-2.495"}
{"smiles": "C=CCN1CCCC1CNC(=O)c1cc2n[nH]nc2cc1OC", "stereo": "configuration not stated", "log S (log10 mol/L)": "-2.804"}
{"smiles": "Cc1ccc(-c2[nH]c(C#N)nc2Cl)cc1", "log S (log10 mol/L)": "-4.259"}

4 of these entries, quoted again:

{"smiles": "CC/C=C/CCCCCCCCCCOC(C)=O", "log S (log10 mol/L)": "-4.67"}
{"smiles": "C=CCCCCCCCCCCCC", "log S (log10 mol/L)": "-7.162"}
{"smiles": "CCCCCCCCCc1cc(C)cc(Cc2cc(C)cc(CCCCCCCCC)c2O)c1O", "log S (log10 mol/L)": "-6.478"}
{"smiles": "C=C1C(O)CC2CC1C2(C)C", "stereo": "configuration not stated", "log S (log10 mol/L)": "-2.096"}

Data: OPERA 2.9 data sets, kmansouri/OPERA on GitHub.